# Target: human zalpha11 receptor (human) (UniProt Q9HBE5)
# Assay: cell-based or functional assay
substance,measurement,value
mouse zalpha11 Ligand (from UniProt Q9ES17 18-146),"STAT luciferase reporter response of BaF3/KZ134/Zalpha11 cells, BHK570 conditioned media (fold over media-only control)",40
same,"proliferation of BaF3/Zalpha11 cells (Alamar Blue), BHK conditioned media (fold over background)",5

# Source: EP1881070A2
